## Binding of CDR-mutated scFvs to a peptide of the spike HR2 region

Binding partner: SARS-CoV-2 spike HR2 peptide, sequence PDVDLGDISGINAS.

Parent: Ab-95, a human scFv built as VH, three GGGGS repeats, VL. Only the CDRs of the light chain vary.
VH: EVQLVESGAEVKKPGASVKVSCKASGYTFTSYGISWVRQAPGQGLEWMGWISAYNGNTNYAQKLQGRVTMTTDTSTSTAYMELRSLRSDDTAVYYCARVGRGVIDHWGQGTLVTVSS
VL: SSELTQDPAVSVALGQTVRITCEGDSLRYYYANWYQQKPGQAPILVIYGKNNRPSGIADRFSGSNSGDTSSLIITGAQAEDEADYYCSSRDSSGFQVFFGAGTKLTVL

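Variants in AAYL52 differ from the parent at up to three CDR positions; double and triple changes were sampled at random. The assay is AlphaSeq: two haploid yeast populations carry antibody and antigen on their surface. Mating (16 h, 30 °C) was followed by selection of diploids and sequencing of their barcodes. Read counts were normalised to the haploid input and turned into Kd by a linear fit to BCL2-family pairs of known affinity, for each replicate. There are three technical replicates.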

Each variant is given by its three light chain CDRs, as the data file delimits them; those of the parent are EGDSLRYYYAN, GKNNRPS, SSRDSSGFQVF. This list gathers variants with a substitution at F95 (VL, numbered from residue 1). Each Kd is an estimate from the mating assay, the geometric mean of the replicates in which the pair was seen; lower is stronger. Where no diploid with the target was found in any replicate, the entry reads "nd": below detection, most likely a poor binder, though not proof of it. Nonspecific signal, from three strains lacking the peptide, appeared in 28% of pairings of library AAYL52, centred on 8.2 µM (5% of these signals below 800 nM); values are not corrected for it. Parent in this assay: reference entry 200 nM, copy in this library 180 nM.

The variant EGDSLRYYYAN / GLNNRPV / SSRDSSGPQVF showed 1.7 µM (3 of 3 replicates). With EGDSLRYMYAN / GSNNRPS / SSRDSSGYQVF the result was 4.1 µM (2 of 3 replicates). The variant EGDSLRYYYAN / GYNNRPS / SSRDISGNQVF showed 470 nM (3 of 3 replicates). The variant EGDSLRYYYAN / GKNNRPS / SSRDSSGMIWF showed 49 µM (2 of 3 replicates). For EGDMLRYYYAN / GKNNRPS / SSRDSSCCQVF, the assay gave 40 µM (2 of 3 replicates). With EGDSLRYYYAN / GKNNRPS / SSWDSFGDQVF the result was 850 nM (2 of 3 replicates).

For EGDSLRYYYAN / GRNNRPS / SSRDSSGWDVF, the assay gave 730 nM (3 of 3 replicates). With EGDSLRYYYAN / GKNNRPS / SDRDSSPDQVF the result was 760 nM (3 of 3 replicates). The variant EGDSLRYYYAN / GKTNRYS / SSRDSSGKQVF gave 7.0 µM (1 of 3 replicates). The variant EGDSLRYYYAN / GKNNRPS / SSRDSKGIQVF gave 670 nM (3 of 3 replicates). With EGDSLRYYHAN / GKNNRPT / SSRDSSGKQVF the result was 1.5 µM (3 of 3 replicates). For TGDSLRYYYAN / GKNNHPS / SSRDSSGIQVF, the assay gave 730 nM (3 of 3 replicates).

The variant EGDSLRYYYAN / GCNNRPS / SSRDSSGLQVF showed 7.4 µM (1 of 3 replicates). The variant EGLSLRYYYAN / GKNNRPS / SSSDSSGPQVF gave 42 µM (2 of 3 replicates). With EGDSYRYYYAN / GKNNRPS / SSRDSSGKMVF the result was 7.4 µM (1 of 3 replicates). For EGDSLRYYYAN / GKGNRPS / SSRPSSGVQVF, the assay gave 770 nM (3 of 3 replicates). The variant EAMSLRYYYAN / GKNNRPS / SSRDSSGKQVF showed 4.9 µM (1 of 3 replicates). The variant EGDSLAYYYAN / GKNNRPS / SSRDSSGSQTF showed 2.1 µM (3 of 3 replicates).

The variant ENDSLRYYYAN / GKNNRPS / SSRDSSGWQVF showed 7.9 µM (1 of 3 replicates). The variant EGDSLRYYYAN / GKNNRPS / MSRDASGAQVF showed 16 nM (3 of 3 replicates). With EGDSLRSYYAN / GKNNRPS / SSPDSSGQQVF the result was 46 nM (3 of 3 replicates). With EGDSLRYAYRN / GKNNRPS / SSRDSSGGQVF the result was 32 µM (2 of 3 replicates). For EGDSTRQYYAN / GKNNRPS / SSRDSSGSQVF, the assay gave 4.7 µM (2 of 3 replicates). The variant EGDSLRFYYAN / GKNGRPS / SSRDSSGMQVF gave 1.2 µM (3 of 3 replicates).

The variant EGDSLRYYYAN / GLNNRPS / SSRDSSGTQAF gave 150 nM (3 of 3 replicates). The variant EGDSLQYYYHN / GKNNRPS / SSRDSSGLQVF gave 9.5 µM (2 of 3 replicates). For EGDSLRYYYAN / GKNNRPS / SVRDSSGMQSF, the assay gave 410 nM (3 of 3 replicates). For EGDSLRYYYAN / GKNNGPS / SSRDSSPGQVF, the assay gave 16 µM (3 of 3 replicates). The variant EYDSLRYYYAN / GKNNRPS / SSRDSSGTQSF showed 1.1 µM (2 of 3 replicates). With EGDELRYYYAN / GKNNRPS / SSRDSSGVSVF the result was 290 µM (1 of 3 replicates).

With EGDSLRYCYAN / GKNNRGS / SSRDSSGDQVF the result was 30 µM (3 of 3 replicates). The variant EGDSYKYYYAN / GKNNRPS / SSRDSSGSQVF showed nd (0 of 3 replicates). The variant EGDSLRYYYAN / GKNNTPS / SWRDSSGKQVF gave 16 µM (1 of 3 replicates). For EGDSLRYYYAN / GKNNRPS / SSRDSSPAQVF, the assay gave 180 nM (3 of 3 replicates). The variant EGDSLRYYYAN / GKNNRPF / SSRDSSGQYVF gave 1.4 µM (3 of 3 replicates). With EGDSKRYYYAN / GKNNRPS / SSRDSSGDQVF the result was 1.9 µM (3 of 3 replicates).

The variant EGDDLRYYYAN / GKNNRPS / SSRCSSGRQVF gave 840 nM (3 of 3 replicates). For EGNSLRSYYAN / GKNNRPS / SSRDSSGLQVF, the assay gave 66 µM (2 of 3 replicates). The variant EGDSLRYYYAN / GKNNRPT / SSRDSSRNQVF gave 100 nM (3 of 3 replicates).

3 of these entries, quoted again:

CDR-L1	CDR-L2	CDR-L3	Kd	detected
EGDDLRYYYAN	GKNNRPS	SSRCSSGRQVF	840 nM	3 of 3
EGDSLRSYYAN	GKNNRPS	SSPDSSGQQVF	46 nM	3 of 3
EGDSLRYYYAN	GKNNRPF	SSRDSSGQYVF	1.4 µM	3 of 3

Values reported by Engelhart et al. 2022, doi:10.1038/s41597-022-01779-4 (FLAb copy).